# The whole screen tested about 10,000 compounds, of which about 15 (0.1%) were called active.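 Rule for the calls: active = highest signal at least 8 times the median of untreated cell-only control wells at some dose; inactive = the rest.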 Not all results are given here.
# Protein sequences, listed by entry. Tags and fused reporters are not part of them. Chains listed by the source or under a name are the forms on record and can include a tag or linker.
# UniProt P13569, with tags, fused parts or gaps F508del: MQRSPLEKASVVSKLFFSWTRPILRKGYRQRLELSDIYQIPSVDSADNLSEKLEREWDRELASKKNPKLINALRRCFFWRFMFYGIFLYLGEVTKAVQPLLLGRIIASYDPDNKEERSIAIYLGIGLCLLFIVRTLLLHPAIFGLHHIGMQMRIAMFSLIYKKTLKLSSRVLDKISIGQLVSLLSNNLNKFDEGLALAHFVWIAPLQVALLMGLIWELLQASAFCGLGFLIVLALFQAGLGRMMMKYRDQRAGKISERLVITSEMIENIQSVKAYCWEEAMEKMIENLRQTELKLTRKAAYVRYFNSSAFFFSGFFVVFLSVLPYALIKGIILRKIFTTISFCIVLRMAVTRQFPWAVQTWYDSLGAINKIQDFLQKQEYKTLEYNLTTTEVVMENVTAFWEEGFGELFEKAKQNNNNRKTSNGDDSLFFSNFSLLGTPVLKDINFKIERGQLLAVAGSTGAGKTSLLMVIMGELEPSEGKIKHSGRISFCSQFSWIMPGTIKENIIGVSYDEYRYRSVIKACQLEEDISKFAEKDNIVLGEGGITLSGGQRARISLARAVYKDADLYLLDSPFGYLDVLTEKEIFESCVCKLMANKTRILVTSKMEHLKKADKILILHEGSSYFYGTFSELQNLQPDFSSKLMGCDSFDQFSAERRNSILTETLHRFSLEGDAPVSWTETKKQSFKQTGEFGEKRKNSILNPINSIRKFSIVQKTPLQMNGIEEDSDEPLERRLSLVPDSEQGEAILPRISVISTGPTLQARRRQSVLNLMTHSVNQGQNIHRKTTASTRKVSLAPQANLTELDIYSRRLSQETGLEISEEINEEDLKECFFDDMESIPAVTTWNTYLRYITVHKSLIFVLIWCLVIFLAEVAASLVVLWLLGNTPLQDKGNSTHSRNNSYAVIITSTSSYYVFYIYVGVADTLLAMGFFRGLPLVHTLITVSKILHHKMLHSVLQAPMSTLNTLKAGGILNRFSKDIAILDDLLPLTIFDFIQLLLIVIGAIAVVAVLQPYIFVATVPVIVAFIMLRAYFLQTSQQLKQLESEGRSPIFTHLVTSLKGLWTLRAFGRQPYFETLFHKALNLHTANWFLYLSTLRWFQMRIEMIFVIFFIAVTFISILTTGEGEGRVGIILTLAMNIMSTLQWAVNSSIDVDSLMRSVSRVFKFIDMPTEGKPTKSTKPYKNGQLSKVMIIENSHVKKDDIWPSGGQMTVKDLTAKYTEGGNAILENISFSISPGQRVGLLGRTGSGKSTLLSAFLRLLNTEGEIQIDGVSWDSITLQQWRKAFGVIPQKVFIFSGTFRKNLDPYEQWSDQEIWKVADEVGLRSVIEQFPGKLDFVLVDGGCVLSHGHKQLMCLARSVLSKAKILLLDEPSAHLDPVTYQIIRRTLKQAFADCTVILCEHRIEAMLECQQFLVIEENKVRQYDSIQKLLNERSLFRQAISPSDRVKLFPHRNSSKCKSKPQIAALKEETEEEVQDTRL
# Legend:
# [1] = compounds raising F508del-CFTR protein level – cell-based, HeLa F508del-CFTR, immunofluorescence, viability, primary screen (AID 1224863); settings: immunofluorescence total CFTR, 24 h, stronger effect = higher value; min viability: measured here: HeLa viability, alamarBlue, dose 20, library dosed in µg/mL unless noted; viability: measured here: primary viability 10 ug/mL, library dosed in µg/mL unless noted;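 for fold increase: total CFTR protein by anti-CFTR immunofluorescence in fixed cells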
# [2] = target: Cystic fibrosis transmembrane conductance regulator (Homo sapiens) (UniProt P13569); test: as above; settings: immunofluorescence total CFTR, 24 h; fold increase: measured here: primary screen 10 ug/mL, library dosed in µg/mL, stronger effect = higher value unless noted; max fold increase: dose 10, library dosed in µg/mL, stronger effect = higher value unless noted; outcome: library dosed in µg/mL unless noted
compound,measurement,setting,value
Cn1ccnc1COc1ccc(C(=O)O)cc1,viability,[1],89%
same,fold increase,[2],1.02
same,outcome,[2],inactive
Cc1cc(-c2nccn2C)c(=O)[nH]n1,viability,[1],99%
same,fold increase,[2],1.08
same,outcome,[2],inactive
Cc1cc(NC(=O)N2CCN(C(=O)OC(C)(C)C)CC2)no1,viability,[1],102%
same,fold increase,[2],1.12
same,outcome,[2],inactive
CC(C)CN1C(=O)c2ccc([N+](=O)[O-])cc2C1=O,viability,[1],88%
same,fold increase,[2],0.89
same,outcome,[2],inactive
O=C1NC2(CCCCCC2)C(=O)N1CN1CCCCCCC1,viability,[1],76%
same,fold increase,[2],0.99
same,outcome,[2],inactive
Cc1cccc2nc(CSc3ccc4ccccc4n3)cc(=O)n12,viability,[1],83%
same,fold increase,[2],1.04
same,outcome,[2],inactive
O=[N+]([O-])c1cn(Cc2cn(-c3ccccc3)nc2-c2ccc(Cl)cc2)cn1,viability,[1],103%
same,fold increase,[2],1.3
same,outcome,[2],inactive
O=C(COc1cc(Cl)c(Cl)cc1Cl)N1CCN(C(=O)C2CCCO2)CC1 (stereo unspecified),viability,[1],99%
same,fold increase,[2],0.97
same,outcome,[2],inactive
CCN(CC)S(=O)(=O)c1ccc(S(=O)(=O)Nc2nc3ccccc3nc2N2CCCC2)cc1,viability,[1],92%
same,fold increase,[2],1.04
same,outcome,[2],inactive
Cc1nnc(COC(=O)C2=Cc3ccccc3OC2)o1,viability,[1],102%
same,fold increase,[2],1.03
same,outcome,[2],inactive
CN(C)C(=O)c1ccc(N2CCOC2=O)cc1,viability,[1],97%
same,fold increase,[2],0.98
same,outcome,[2],inactive
CCCCn1c(N)c(N(C)C(=O)CCS(=O)(=O)CC(C)C)c(=O)[nH]c1=O,viability,[1],103%
same,fold increase,[2],1
same,outcome,[2],inactive
CN1CCC(CNC(=O)C23CC4CC(CC(Cl)(C4)C2)C3)c2ccccc21 (stereo unspecified),viability,[1],77%
same,fold increase,[2],1.08
same,outcome,[2],inactive
CC(c1nc2ccccc2s1)N(C)CN1C(=O)C2CC=CCC2C1=O (stereo unspecified),viability,[1],91%
same,fold increase,[2],1.02
same,outcome,[2],inactive
COC(=O)/C=C/c1ccc(OCC(=O)c2ccc(OC(F)F)cc2)c(OC)c1,viability,[1],94%
same,fold increase,[2],1.05
same,outcome,[2],inactive
CCOc1c(Br)cc(CNC(C)C2CCCO2)cc1Br (stereo unspecified),viability,[1],99%
same,fold increase,[2],1.09
same,outcome,[2],inactive
Cc1cc(C(C)(C)C)ccc1Oc1ccc2nnnn2n1,viability,[1],71%
same,fold increase,[2],1
same,outcome,[2],inactive

# Reference: PubChem BioAssay AID1224863 (Southern Research Institute, 2016)
